Biological target: Melanocyte-stimulating hormone receptor (Mus musculus, UniProt Q01727)
Assay: Agonist activity at mouse melanocortin-1 receptor transfected in HEK293 cells after 6 hrs by beta-galactosidase reporter gene assay
Format: cell-based

By UniProt entry, the sequences of proteins in these tests, tags left out. Where a name states a change or a piece, a line headed by the entry shows the natural chain unless it says otherwise.
UniProt Q01727: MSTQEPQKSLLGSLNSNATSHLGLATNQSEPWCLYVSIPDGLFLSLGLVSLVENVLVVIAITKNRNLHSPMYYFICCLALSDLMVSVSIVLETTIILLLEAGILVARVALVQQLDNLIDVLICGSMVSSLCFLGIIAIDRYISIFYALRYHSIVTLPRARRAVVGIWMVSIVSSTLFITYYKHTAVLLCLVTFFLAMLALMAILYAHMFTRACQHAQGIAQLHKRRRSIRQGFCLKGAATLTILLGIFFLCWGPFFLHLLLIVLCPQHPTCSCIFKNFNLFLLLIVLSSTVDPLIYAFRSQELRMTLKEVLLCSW

EC50: 71 nM
SMILES: CC(=O)N[C@@H](Cc1cnc[nH]1)C(=O)N[C@H](Cc1ccccc1)C(=O)N[C@@H](CCCN=C(N)N)C(=O)N[C@@H](Cc1c[nH]c2ccccc12)C(N)=O

— ChEMBL document CHEMBL3421543, “Melanocortin antagonist tetrapeptides with minimal agonist activity at the mouse melanocortin-3 receptor” (ACS Med Chem Lett, 2015)
